US11529340B2 (priority 2016, dated 2022)

Experiments:
[1] = tested on: SNI-induced allodynia in mice; assay: Spared nerve injury (SNI)-induced mechanical allodynia, electronic von Frey; conditions: subcutaneous, 10-14 days after SNI surgery
[2] = tested on: mice; conditions: literature or earlier results; route as stated; cited from earlier work

SMILES	reversal of neuropathic allodynia [1]	impairment of rotarod performance / motor function [2]
CN(C)C(=O)C(CCN1CCC(O)(c2ccc(Cl)cc2)CC1)(c1ccccc1)c1ccccc1 [loperamide]	transiently reversed the neuropathic allodynia in a dose-dependent manner	–
C[C@]12N[C@H](Cc3ccccc31)c1ccccc12 [MK801]	–	significant reduction in the rotarod assay in nerve-injured mice
CN1CC[C@]23c4c5ccc(O)c4O[C@H]2c2[nH]c4ccccc4c2C[C@@]3(O)[C@H]1C5 [OMI (4), oxymorphindole]	transiently reversed the neuropathic allodynia in a dose-dependent manner	–
